Data as given in patent US6916797B2, “α-arylethylpiperazine derivatives as neurokinin antagonists” (UCB, S.A., priority 2000, dated 2005).

The chains behind the UniProt entries cited, without tags or fusion partners.
UniProt P25103, whole entry: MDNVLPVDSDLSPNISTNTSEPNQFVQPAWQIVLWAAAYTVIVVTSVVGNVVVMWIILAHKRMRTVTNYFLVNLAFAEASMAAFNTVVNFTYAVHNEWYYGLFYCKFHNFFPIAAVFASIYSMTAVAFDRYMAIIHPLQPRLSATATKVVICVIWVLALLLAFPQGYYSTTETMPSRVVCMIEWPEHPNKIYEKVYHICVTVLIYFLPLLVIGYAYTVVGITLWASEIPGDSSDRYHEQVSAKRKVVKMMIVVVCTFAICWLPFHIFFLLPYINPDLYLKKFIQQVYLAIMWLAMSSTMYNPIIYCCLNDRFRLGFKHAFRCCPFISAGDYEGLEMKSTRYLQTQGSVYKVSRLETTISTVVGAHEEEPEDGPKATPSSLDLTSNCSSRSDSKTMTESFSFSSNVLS

Molecular target: NK1 receptors (Homo sapiens, UniProt P25103)
Assay: Binding of [4,5-3H-Leu10] substance P to human recombinant NK1 receptors expressed in CHO cell membranes
Parameters: host or cells: CHO cells
Settings: pIC50, pIC50 = -log IC50, concentration inhibiting by 50% the specific binding of [4,5-3H] substance P; tested as the free base/salt given in c1
Description: The following test was designed to assess the affinity of test substances for human recombinant NK1 receptors expressed in Chinese Hamster Ovarian (CHO) cells.
CHO cells expressing the human recombinant NK1 receptor are used. The cells were obtained from Euroscreen (Brussels, Belgium).
Cells expressing the human NK1 receptor are routinely cultured in 175 cm2 flasks containing 75 ml of medium F12 (Ham) enriched with 2 mmol/l L-glutamine, 100 IU/ml penicilline, 100 μg/ml streptomycine, 1% sodium pyruvate, 2.5 μg/ml fungizone amphotericin B, 400 μg/ml geneticin and supplemented with 10% foetal calf serum. […] When subcultured, the cells are seeded at a concentration of 50,000 cells/cm2.
Confluent cells are gently scraped and resuspended in 25 ml of phosphate buffered saline without calcium and magnesium. The cellular suspension is centrifuged at 1500×g for 3 min (4° C.). The cell pellet is homogenized in a 15 mmol/l Tris-HCl (pH 7.5) buffer, 2 mmol/l MgCl2, 0.3 mmol/l EDTA, 1 mmol/l EGTA. The crude membrane fraction is collected by two consecutive centrifugation steps at 40,000×g for 25 min (4° C.). The final pellet is resuspended in 20 mmol/l Tris-HCl (pH 7.4), 250 mmol/l sucrose buffer at a protein concentration ranging from 2 to 6 mg/ml and stored in liquid nitrogen. • 1.2.2. Test Design
The inhibition constant (Ki) is determined using increasing concentrations of the test substance. […]

C[C@@H](OC[C@@H](c1ccccc1)N1CCN(CCOCC(=O)O)CC1)c1cc(C(F)(F)F)cc(C(F)(F)F)c1 [Compound 281]
IC50: 7.94 nM
